These results are taken from patent publication US20250042856A1, “CRYSTALLINE FORM OF (R)-2-(TERT-BUTYLAMINO)-1-(5-FLUOROPYRIDIN-3-YL)-ETHAN-1-OL HEMI-TARTRATE SALT FOR THE TREATMENT OF HYPERGLYCEMIA AND DIABETES 2” (ATROGI AB, priority 2021, published 2025).

Where a name gives a salt, the structure may show the parent alone.

Data set [1] in a line: Hygroscopicity and physical stability of the salt under stress conditions (XRPD, DSC, DVS). It is filed as physicochemical. The following applies: 2 days at 40° C. and 75% RH.
The test system of data set [2] is L6-myotubes. In words: Glucose uptake (3H-2-deoxyglucose) in differentiated L6-myotubes. The format is cell-based. The following applies: agonist final concentration 1×10^−5 M. On the procedure:
(§1) L6-myoblasts were grown in Dulbecco's Modified Eagle's Medium (DMEM) containing 1 g/L glucose supplemented with 10% fetal bovine serum, 2 mM L-Glutamine, 50 U/mL penicillin, 50 μg/mL streptomycin and 10 mM HEPES. Cells were plated at 1×10^5 cells per mL in 24-well plates. After reaching 90% confluence the cells were grown in medium containing 2% FBS for 7 days where upon cells differentiated into myotubes.
Differentiated L6-myotubes were serum-starved overnight in medium containing 0.5% fatty-acid free BSA and stimulated with an agonist, with a final concentration of 1×10^−5 M. After 1 h 40 min the cells were washed with warm glucose free medium or PBS twice and another portion of agonist was added to the glucose free medium. After 20 min the cells were exposed to 50 nM ^3H-2-deoxyglucose for 10 min before washed with ice cold glucose free medium or PBS three times and lysed with 0.2 M NaOH, 400 μL/well, for 1 h at 60° C. The cell lysate was mixed with 4 mL scintillation buffer (Emulsifier Safe, Perkin Elmer) and the radioactivity was detected in a β-counter (Tri-Carb 4810TR, Perkin Elmer).

The test system of data set [3] is L6-myotubes. Description: Measurement of intracellular cAMP levels in differentiated L6 cells. The format is cell-based. The settings on record: agonist final concentration 1×10^−5 M, 15 min, alpha screen cAMP kit. How it is done: as §1
Differentiated cells were serum-starved overnight and stimulated with an agonist, final concentration 1×10^−5 M, for 15 min in stimulation buffer (HBSS supplemented with 1% BSA, 5 mM HEPES and 1 mM IBMX, pH 7.4). The medium was aspirated and 100 μL of 95% EtOH was added to each well of the 24-well plate and cells were kept at −20° C. overnight. The EtOH was allowed to evaporate and 500 μL of lysis buffer (1% BSA, 5 mM HEPES and 0.3% Tween-20, pH 7.4) was added to each well. The plate was kept at −80° C. for 30 min and then at −20° C. until the day of detection when the samples were thawed. Intracellular cAMP levels were detected using an alpha screen cAMP kit (6760635D from Perkin Elmer).
For orientation: cAMP levels reflect the balance of adenylyl cyclase and phosphodiesterase activity.

As for `CC(C)(C)NC[C@H](O)c1cncc(F)c1.O=C(O)/C=C\C(=O)O` [Comparative Salt Example 4], the hygroscopicity result in data set [1] was “slightly hygroscopic”.
Consider `CC(C)(C)NC[C@H](O)c1cncc(F)c1` [Compound Example 1, (R)-2-(tert-Butylamino)-1-(5-fluoropyridin-3-yl)ethan-1-ol], for which, in the data set on L6-myotubes [2], the “glucose uptake activity relative to that of isoproterenol” value is on record as “more than 75%”. For the same compound, the “intracellular cAMP activity relative to that of isoproterenol” value with L6-myotubes [3] was “less than 50%”.
In the case of `CC(C)(C)NC[C@H](O)c1cncc(F)c1.O=C(O)C(=O)O` [Comparative Salt Example 9], in data set [1], the hygroscopicity result is “not hygroscopic” and the physical stability result was “physically stable”.
For the compound `CC(C)(C)NC[C@H](O)c1cncc(F)c1` [Salt Example 1], in data set [1], the hygroscopicity entry is given as “not hygroscopic” and the physical stability entry was “physically stable”. In data set [1] (listed as hemitartrate salt), the hygroscopicity result is given as “low hygroscopicity”.
As for `CC(C)(C)NCC(O)c1cncc(F)c1.Cc1ccc(S(=O)(=O)O)cc1` (stereo not drawn) [Comparative Salt Example 7], the hygroscopicity result in data set [1] is given as “slightly hygroscopic”.
